Yeast mating assay B: variants of the scFv Ab-14

Data: MIT Lincoln Laboratory AlphaSeq set, Li et al. 2023, doi:10.1038/s41467-023-39022-2, as distributed in FLAb.

The target is the same throughout: PDVDLGDISGINAS, from the HR2 region of SARS-CoV-2 spike.

Ab-14 is the parent antibody, in scFv form: VH, then three GGGGS repeats, then VL. The heavy chain is unchanged in all variants.
VH: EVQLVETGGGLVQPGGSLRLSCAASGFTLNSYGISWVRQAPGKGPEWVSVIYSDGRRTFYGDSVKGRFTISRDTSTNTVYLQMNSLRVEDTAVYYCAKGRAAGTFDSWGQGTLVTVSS
VL: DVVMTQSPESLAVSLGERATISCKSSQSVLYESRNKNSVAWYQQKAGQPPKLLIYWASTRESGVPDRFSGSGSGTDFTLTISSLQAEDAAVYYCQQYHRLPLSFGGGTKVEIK

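The starting antibody came from a phage panning campaign against this peptide. This is the validation round: designs drawn from the data on random variants, tested in the same kind of assay. Several design methods are mixed in this list. The scFvs were displayed on barcoded MATa yeast, the peptide on MATalpha yeast. Pairs that bind mate more often; barcode pairs of the diploids are counted by sequencing. Each replicate has its own calibration line, from reference interactions of the BCL2 family. There are six technical replicates.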

Substitutions are numbered in sequence along the VL above, starting at 1 (not Kabat). Variants here have at most six changes. Values are apparent Kd, the geometric mean of the replicates that gave a signal; lower means stronger binding. A pair that was not seen in any replicate is written "nd"; this usually means weak binding, but a binder can also be missed. Three control strains display no target. For all light chain designs, 4% of the pairings with them gave a signal, with a median of 430 nM and one signal in twenty below 38 nM, so weak values seen in few replicates may be background. The authors averaged sequences with at least three values out of six and counted those with two or fewer as poor binders. Of ten entries with the parent sequence, four were seen in most replicates (averages 2.2 nM to 240 nM), three in one and three in none, so single entries are noisy. The range of this assay differs from that of the first round, and the authors advise against merging the two.

Variant Q27W V29Y R34G W56H S62D gave 4.9 nM (6 of 6 replicates). Variant V29Q R34V W56H gave 2.2 nM (6 of 6 replicates). With S25L W56D S62M the result was 380 pM (6 of 6 replicates). Variant S25L S26P W56G S62V gave 640 pM (6 of 6 replicates). With S25V S26D V29W L30D W56N S62R the result was 530 pM (6 of 6 replicates). Variant S25M V29W W56N T59Q S62E showed 560 pM (6 of 6 replicates). Variant S25F V29W N35M W56N T59Q showed 580 pM (6 of 6 replicates). For S25L V29W S33D N35V W56G, the assay gave 1.3 nM (6 of 6 replicates). For S26D V29W W56G T59F, the assay gave 670 pM (6 of 6 replicates).

Variant R99G L102P showed nd (0 of 6 replicates). For Q27I V29Y Y31E W56E T59A, the assay gave 950 pM (6 of 6 replicates). Variant S25L S38A W56E gave 310 pM (6 of 6 replicates). For S25L S26V Q27G V29T Y31Q N35Q, the assay gave 200 nM (4 of 6 replicates). Variant S25L K36G W56N S62V showed 600 pM (6 of 6 replicates). Variant S25V W56G H98P showed 9.8 nM (6 of 6 replicates). With S25L S26D V29A L30E E32G W56S the result was 5.8 nM (6 of 6 replicates). For S25L S26Q V29Q W56N E61S, the assay gave 650 pM (6 of 6 replicates). For S25L L30W W56N, the assay gave 1.2 nM (6 of 6 replicates).

Variant S25F Y31N S33L W56H A57D S103I gave 22 nM (6 of 6 replicates). Variant S25L V29W W56G T59A S62V showed 4.4 nM (6 of 6 replicates). Variant S25I S26L L30E W56H S62D H98G showed 9.5 nM (6 of 6 replicates). Variant S25F R34T N35T K36P W56N showed 1.2 nM (6 of 6 replicates). For S25L V29E S38A W56N, the assay gave 230 pM (6 of 6 replicates). For Q96L, the assay gave 23 nM (1 of 6 replicates). For S25L V29W L30D W56N E61M, the assay gave 570 pM (6 of 6 replicates). Variant S25M Q27G S28Q Y31D R34T showed 6.5 nM (6 of 6 replicates). Variant L30K W56D gave 8.0 nM (4 of 6 replicates).

Variant K36E S38G W56A L102I gave 250 nM (4 of 6 replicates). With S25V L30P W56E Q96D the result was 2.1 nM (6 of 6 replicates). Variant K24H S25Q Q27P W56N S103Q gave 930 pM (6 of 6 replicates). Variant L30N R34L N37A gave 210 nM (3 of 6 replicates). Variant S25L S26Q N35M W56N T59Q E61L showed 6.1 nM (6 of 6 replicates). Variant S25F S33P N35T W56N Q96W gave 16 nM (6 of 6 replicates). For L30F R34L N35A, the assay gave 1.8 nM (6 of 6 replicates). Variant S25L S26Q S38N W56E S62D showed 610 pM (6 of 6 replicates). With S25F N35E the result was nd (0 of 6 replicates).

For S25L V29E S38N W56E, the assay gave 400 pM (6 of 6 replicates). With S25L Y31M W56E E61C the result was 590 pM (6 of 6 replicates). For K36N, the assay gave 73 nM (3 of 6 replicates). Variant Q27D S28G R34T K36Q W56E P101I showed nd (0 of 6 replicates). For V29E W56S, the assay gave 2.4 nM (6 of 6 replicates). With K24Q R34S the result was 13 nM (6 of 6 replicates). Variant W56G H98V gave 710 pM (6 of 6 replicates). With S25L S26Q V29W W56N T59E the result was 600 pM (6 of 6 replicates).

Again, the first 3 entries without any signal:

changes	Kd (apparent)	seen in
R99G L102P	nd	0/6
S25F N35E	nd	0/6
Q27D S28G R34T K36Q W56E P101I	nd	0/6